Data reported in ChEMBL document CHEMBL1121977, “alpha 2 adrenoceptors: classification, localization, mechanisms, and targets for drugs” (J Med Chem, 1982).

Protein sequences, listed by entry. Tags and fused reporters are not part of them. Lines headed by an entry give the natural chain unless they say otherwise; changes in a name come on top.
UniProt P22086: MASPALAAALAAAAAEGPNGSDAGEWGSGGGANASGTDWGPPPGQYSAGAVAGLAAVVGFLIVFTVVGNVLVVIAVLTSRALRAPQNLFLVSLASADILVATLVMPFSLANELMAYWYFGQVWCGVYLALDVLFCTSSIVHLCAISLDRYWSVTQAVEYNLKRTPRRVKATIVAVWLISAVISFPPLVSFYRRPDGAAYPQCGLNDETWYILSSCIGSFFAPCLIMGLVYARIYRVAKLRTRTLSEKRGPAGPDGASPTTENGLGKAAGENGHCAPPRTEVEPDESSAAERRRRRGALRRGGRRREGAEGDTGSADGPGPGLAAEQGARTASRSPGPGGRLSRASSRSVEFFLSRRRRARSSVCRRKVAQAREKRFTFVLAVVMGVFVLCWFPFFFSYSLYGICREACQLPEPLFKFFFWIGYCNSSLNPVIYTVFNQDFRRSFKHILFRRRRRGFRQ
UniProt P19328: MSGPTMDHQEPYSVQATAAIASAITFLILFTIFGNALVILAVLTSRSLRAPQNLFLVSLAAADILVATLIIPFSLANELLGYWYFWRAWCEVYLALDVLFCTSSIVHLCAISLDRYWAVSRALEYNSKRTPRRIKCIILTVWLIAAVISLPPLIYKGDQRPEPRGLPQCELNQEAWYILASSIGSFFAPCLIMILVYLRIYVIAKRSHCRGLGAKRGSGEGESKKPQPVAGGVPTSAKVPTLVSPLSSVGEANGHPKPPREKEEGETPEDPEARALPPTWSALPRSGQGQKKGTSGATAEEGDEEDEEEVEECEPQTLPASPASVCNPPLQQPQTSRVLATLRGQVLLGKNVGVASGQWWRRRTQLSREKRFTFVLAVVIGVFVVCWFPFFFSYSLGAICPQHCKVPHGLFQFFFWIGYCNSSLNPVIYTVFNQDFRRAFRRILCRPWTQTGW
UniProt P22909: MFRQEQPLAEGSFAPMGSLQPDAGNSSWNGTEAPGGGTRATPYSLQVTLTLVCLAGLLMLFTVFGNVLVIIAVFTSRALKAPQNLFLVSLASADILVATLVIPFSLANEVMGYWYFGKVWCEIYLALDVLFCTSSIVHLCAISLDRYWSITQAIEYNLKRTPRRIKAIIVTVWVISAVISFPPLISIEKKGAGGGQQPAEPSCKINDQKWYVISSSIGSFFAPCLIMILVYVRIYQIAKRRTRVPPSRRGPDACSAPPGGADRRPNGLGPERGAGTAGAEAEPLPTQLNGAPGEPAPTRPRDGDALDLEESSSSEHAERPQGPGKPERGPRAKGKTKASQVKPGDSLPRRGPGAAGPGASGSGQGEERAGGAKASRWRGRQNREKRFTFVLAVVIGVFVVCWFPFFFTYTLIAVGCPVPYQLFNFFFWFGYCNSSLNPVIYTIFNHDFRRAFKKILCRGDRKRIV

Biological target: Adrenergic receptor alpha-2 (Rattus norvegicus, UniProt P22086+P19328+P22909)
Assay: Displacement of [3H]clonidine from Alpha-2 adrenergic receptor of rat brain membranes
Type: cell membranes, Membrane

c1ccc2c(CC3=NCCN3)cccc2c1 [NAPHAZOLINE]
Ki: 5.7 nM
